# From PMC4832822, “Investigating the Influence of (Deoxy)fluorination on the Lipophilicity of Non‐UV‐Active Fluorinated Alkanols and Carbohydrates by a New log P Determination Method” (Angewandte Chemie (International Ed. in English), 2015)
# Several values for one entry are separate records, joined by “and”; a condition that tells them apart may be missing. Identical values can stand only once. Like-named read-outs stand apart in the source and are kept apart here.
# Assays:
# [1] = cited from earlier work
# [2] = milogP calculated using Molinspiration Cheminformatics; settings: Table SI14
# [3] = log P determination by 19F NMR shake-flask method with internal fluorinated reference (octanol/water)
# [4] = internal validation, reference 13 (+1.20EXP)
substance,measurement,setting,value
2-fluoroethanol,logP (lit),"[1]; method and temperature not provided, ref U.S. National Library of Medicine online database (chemidplus)",-0.67
same,logP (lit),"[1]; ref Hansch, Leo 1979 and Dillingham et al., J. Pharm. Sci. 1973 (shake-flask, gas chromatography)",-0.92
same,ΔlogP (milogP vs logP exp),[2],+0.73
same,Average logP,"[3]; 25 °C, reference TFE (+0.36)",-0.75
same,Average logP,[3]; [4],-0.76
same,error (mean logP to three decimals),[3]; [4],-0.758
same,logP,"[3]; octanol/water, 19F NMR, 25 °C, average value",-0.75
same,error (mean logP to three decimals),[3]; reference TFE (+0.36),-0.746
same,logP,"[3]; single experiment, internal validation, reference 13 (+1.20EXP)",-0.766 and -0.754
same,logP,"[3]; single experiment, reference TFE (+0.36)",-0.746 and -0.749 and -0.741
